PubChem BioAssay AID488788 (Broad Institute, 2010)
The list shows a part of the results, in another mix than the full data. Inconclusive results are not listed. Active and inactive are the calls of the source. The rule behind the calls is not given here.

By UniProt entry, the sequences of proteins in these tests, tags left out.
UniProt Q03530, whole entry: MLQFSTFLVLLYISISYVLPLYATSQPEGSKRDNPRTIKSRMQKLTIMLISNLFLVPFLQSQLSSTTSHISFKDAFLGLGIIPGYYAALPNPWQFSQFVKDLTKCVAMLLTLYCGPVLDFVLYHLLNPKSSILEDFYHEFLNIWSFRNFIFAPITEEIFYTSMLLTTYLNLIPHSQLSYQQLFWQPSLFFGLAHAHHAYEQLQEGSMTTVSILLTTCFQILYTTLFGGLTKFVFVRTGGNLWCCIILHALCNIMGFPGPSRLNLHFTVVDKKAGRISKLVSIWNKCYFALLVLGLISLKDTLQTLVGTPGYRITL

Target: CAAX prenyl protease 2 (Saccharomyces cerevisiae (strain ATCC 204508 / S288c)) (UniProt Q03530)
Experiment: Rce1p protease inhibitors, dose response, biochemical, plate reader, cherry-pick (AID 488788)
Conditions: Rce1p enzyme activity, at 10 µM (top of the series)

## CN1CCC(Nc2cccc(F)c2)CC1
  activity change, negative = inhibition: inactive
